Source: PubChem BioAssay
Yeast UUG start – yeast start codon fidelity modulation | S. cerevisiae UUG-firefly luciferase reporter, luminescence/redox ratio | activity score, % at 18.7 µM | hit rate 0.13% among 350,000 | AID 602363;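 active means replicate mean at a twofold rise or more, about +100% in these data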;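 further: firefly luciferase made from a UUG start codon reports start codon fidelity; reporter light over untreated wells divided by growth signal over untreated wells; some hits fall short of that in this replicate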
CDK5 inh – blocks human CDK5/p35 kinase activity; Recombinant CDK5/p35, ADP-Glo luminescence, 60 min; inhibition, % at 10 µM; 330,000 compounds, 0.01% hits;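 active means highest replicate inhibition of at least 50% and at least 75% of replicates reaching 50%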;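 further: plate controls were DMSO neutral control for no effect and GW8510 at 10 µM for full effect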
CAL PDZ FP-1 – blocks peptide binding to human CAL PDZ domain; purified CAL PDZ, TMR-peptide fluorescence polarization, 1 h; Q9HD26; inhibition, % at 20 µM; AID 504414; 330,000 compounds, 0.02% hits;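 active means highest replicate inhibition of at least 40%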;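 further: plate controls were DMSO neutral control wells for no effect and unlabeled competitor peptide control wells for full effect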
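material = purified tagged CAL PDZ domain construct (CerCALP) | compound dosing = 20 µM, one dose | times = 1 h at RT | measured by = fluorescence polarization from S- and P-plane intensities, G-factor corrected | read-out = inhibition from polarization loss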
CAL PDZ FP-2 – inhibitors of human CAL PDZ peptide binding | 300,000 compounds, 0.92% hits | Q9HD26 | purified CAL PDZ, TMR-peptide fluorescence polarization, 1 h | inhibition, % at 24.9 µM;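 active means mean inhibition of at least 30% with at least half of replicates also reaching 30%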;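 further: 0% = DMSO neutral control and 100% = excess unlabeled competitor peptide PRC23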
DYRK1A inh – blocks rat Dyrk1A kinase activity; Q63470; ADP-Glo luminescence, NFATc1 peptide; inhibition, % at 12.5 µM; 310,000 compounds, 0.43% hits; AID 504441; in the data active means inhibition above about 50%;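 further: plate controls were vehicle with enzyme for no effect and no enzyme for full effect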
dFosB activator – enhances mouse delta FosB homodimer DNA binding | P13346 | purified delta FosB, TAMRA-CDK5 oligo fluorescence polarization; percent of positive-control signal above neutral wells | activation, % at 25 µM | 340,000 compounds, 0.99% hits;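 active means mean activation above about 17%, with every replicate also reaching it, limit read from the data, passing the limit was not always enough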
Active calls of the source: *; x = not tested or not shown. An excerpt weighted towards active compounds, which were near 1.7% of everything screened.

Abbreviations – A = Yeast UUG start; B = CDK5 inh; C = CAL PDZ FP-1; D = CAL PDZ FP-2; E = DYRK1A inh; F = dFosB activator
1	O=S(=O)(N[C@H]1CC[C@H](CCn2cc(C3CC3)nn2)O[C@H]1CO)c1ccc(F)cc1
  A: -2	B: x	C: x	D: x	E: x	F: x

2	COc1n[nH]c(C(=O)Nc2nc3ccccc3s2)c1[N+](=O)[O-]
  A: x	B: -2	C: -1	D: 66*	E: 12	F: 1

3	COc1n[nH]c(C(=O)NCc2ccccc2)c1[N+](=O)[O-]
  A: x	B: 1	C: -1	D: 0	E: -9	F: 2

4	C(=C/c1nccc2c1[nH]c1ccccc12)/c1ccc2c(c1)OCO2
  A: -10	B: 0	C: x	D: -12	E: 12	F: 64*

5	O=C([C@H]1[C@H](CO)[C@H]2Cn3c(ccc(C4=CCCC4)c3=O)[C@H]2N1Cc1nccs1)N1CCCCC1
  A: -5	B: x	C: x	D: x	E: x	F: x

6	Cc1ccccc1N1CC(O)(c2cccs2)[N+]2=C1CCCC2 (configuration not stated)
  A: x	B: -1	C: 6	D: 87*	E: 2	F: 2

7	CCCNC(=O)C[C@@H]1C[C@H]2c3cc(NC(=O)CC4CC4)ccc3O[C@H]2[C@H](CO)O1
  A: 139*	B: x	C: x	D: x	E: x	F: x

8	COc1cccc(S(=O)(=O)Nc2ccc3c(c2)[C@H]2C[C@@H](CC(=O)O)O[C@H](CO)[C@H]2O3)c1
  A: 37*	B: x	C: x	D: x	E: x	F: x

9	CCCNC(=O)C[C@@H]1C[C@H]2c3cc(NC(=O)CC4CC4)ccc3O[C@H]2[C@@H](CO)O1
  A: -9	B: x	C: x	D: x	E: x	F: x

10	COC(=O)c1ccccc1-c1c2ccc(=N)cc-2oc2cc(N)ccc12
  A: -91	B: 4	C: 109*	D: x	E: 8	F: 88*

Full records as entered above. Values in the order: Yeast UUG start | CDK5 inh | CAL PDZ FP-1 | CAL PDZ FP-2 | DYRK1A inh | dFosB activator
CCCNC(=O)C[C@@H]1C[C@H]2c3cc(NC(=O)CC4CC4)ccc3O[C@H]2[C@@H](CO)O1 in the list: -9 | x | x | x | x | x
CCCNC(=O)C[C@@H]1C[C@H]2c3cc(NC(=O)CC4CC4)ccc3O[C@H]2[C@H](CO)O1 in the list: 139* | x | x | x | x | x

Next records follow:
Abbreviations – A = Yeast UUG start; B = CDK5 inh; C = CAL PDZ FP-1; D = CAL PDZ FP-2; E = DYRK1A inh; F = dFosB activator
11	COC(=O)c1ccccc1-c1ccc(/C=N/NC(=O)c2cc3ccccc3o2)o1
  A: -8	B: 1	C: -7	D: -9	E: 17	F: -8

12	O=C(COC(=O)Cc1c(F)cccc1Cl)NNC(=O)c1ccccc1
  A: -14	B: -4	C: 0	D: 1	E: -1	F: -9

13	O=C(COC(=O)Cc1c(F)cccc1Cl)NC(=O)c1ccccc1
  A: -16	B: 1	C: -2	D: 50*	E: -8	F: -8

14	O=C(C[C@@H]1C[C@@H]2c3cc(NC(=O)c4cccnc4)ccc3O[C@@H]2[C@@H](CO)O1)NCc1ccncc1
  A: 0	B: x	C: x	D: x	E: x	F: x

15	O=C(Oc1ccc(/C=N/NC(=O)c2ccccc2F)cc1)c1ccccc1
  A: -21	B: -2	C: -1	D: x	E: -4	F: 17*

16	O=C(Oc1ccc(/C=N/NC(=O)c2ccccc2O)cc1)c1ccccc1
  A: -14	B: 1	C: 0	D: -3	E: 4	F: 5

17	CO[C@@H]1CN(C)C(=O)c2ccc(NC(=O)C3CCCCC3)cc2OC[C@@H](C)N(C)C[C@@H]1C
  A: 10	B: x	C: x	D: x	E: x	F: x

18	Cn1c(N)c(C(=O)COC(=O)c2ncc(Cl)c(Cl)c2Cl)c(=O)n(C)c1=O
  A: x	B: 1	C: -1	D: 55*	E: 5	F: 1

19	Cn1c(N)c(C(=O)COC(=O)c2ccccn2)c(=O)n(C)c1=O
  A: 1	B: 0	C: -1	D: 3	E: -1	F: -1

20	COc1cc(C(=O)NNC(=O)c2ccc3c(c2)OCCO3)cc(OC)c1OC
  A: -8	B: -1	C: 0	D: 92*	E: 1	F: 0

21	COc1cc(OC)cc(C(=O)NNC(=O)c2ccc3c(c2)OCCO3)c1
  A: -7	B: 0	C: 0	D: x	E: -4	F: 11

22	CCCn1nnc(NC(=O)c2ccc3c(c2)OCO3)n1
  A: x	B: 1	C: -1	D: 103*	E: 10	F: 0

23	CCCn1nnc(NC(=O)c2cccc(Cl)c2)n1
  A: -19	B: 2	C: x	D: -2	E: 13	F: -1

24	O=C(Nc1ccn(CCCN(CCCn2ccc(NC(=O)OCc3ccccc3)nc2=O)CCc2cc3ccccc3[nH]2)c(=O)n1)OCc1ccccc1
  A: -13	B: 1	C: 1	D: -3	E: x	F: 83*

25	C[C@@H]1CN([C@H](C)CO)C(=O)c2cc(NC(=O)C3CCCCC3)ccc2O[C@@H](C)CCCCO[C@H]1CN(C)Cc1ccc(C(F)(F)F)cc1
  A: -4	B: x	C: x	D: x	E: x	F: x

26	Cc1nc(SCC(=O)O)c(C#N)c2c1CCCC2
  A: 6	B: 2	C: -4	D: 76*	E: -4	F: 0

27	CCc1nc(SCC(=O)O)c(C#N)c2c1CCCC2
  A: x	B: 0	C: -1	D: x	E: -1	F: -4

28	COC(=O)[C@H](CC(C)C)NC(=O)NCCC1=CCCCC1
  A: x	B: 0	C: 0	D: 76*	E: 0	F: 0

29	C[C@H]1CN([C@@H](C)CO)C(=O)c2cc(C3=CCCCC3)cnc2O[C@@H]1CN(C)C(=O)C1CCOCC1
  A: -4	B: x	C: x	D: x	E: x	F: x

30	CCc1ccccc1NC(=O)c1cnn(-c2ccccc2)c1C
  A: -10	B: 1	C: x	D: 75*	E: -1	F: 2

Individual results from the results shown.
CCc1nc(SCC(=O)O)c(C#N)c2c1CCCC2 – CDK5 inh = 0
COc1cc(OC)cc(C(=O)NNC(=O)c2ccc3c(c2)OCCO3)c1 – CDK5 inh = 0
CCc1ccccc1NC(=O)c1cnn(-c2ccccc2)c1C – CAL PDZ FP-2 = 75*

Carrying on:
Abbreviations – A = Yeast UUG start; B = CDK5 inh; C = CAL PDZ FP-1; D = CAL PDZ FP-2; E = DYRK1A inh; F = dFosB activator
31	COCC#Cc1ccc2c(c1)O[C@@H](CN(C)S(=O)(=O)c1cccc(OC)c1)[C@@H](C)CN([C@@H](C)CO)S2(=O)=O
  A: 0	B: x	C: x	D: x	E: x	F: x

32	NCCNc1ccc(C(=O)N2c3ccccc3Sc3ccccc32)cc1[N+](=O)[O-]
  A: -20	B: 0	C: -21	D: 6	E: -5	F: 54*

33	O=C(COc1ccc(Cl)cc1Cl)Nc1ccc(CN2CCOCC2)cc1
  A: -4	B: 1	C: 0	D: 84*	E: 8	F: -7

34	Cc1cc(Cl)ccc1OCC(=O)Nc1ccc(CN2CCOCC2)cc1
  A: -12	B: 0	C: -2	D: -1	E: -1	F: -4

35	CCNC(=O)NC(=O)C(C)OC(=O)c1ccc(SC)cc1OC (configuration not stated)
  A: x	B: 0	C: 2	D: -2	E: 4	F: 1

36	COc1cc(SC)ccc1C(=O)OC(C)C(=O)Nc1ccc(NC(C)=O)cc1 (configuration not stated)
  A: 0	B: 0	C: -1	D: 56*	E: 1	F: -2

37	C[C@@H]1CN([C@H](C)CO)C(=O)Cc2cc(NS(=O)(=O)c3ccc(F)cc3)ccc2O[C@@H]1CN(C)S(=O)(=O)c1cn(C)cn1
  A: -7	B: x	C: x	D: x	E: x	F: x

38	CC1CC(C)CN(CCCNS(=O)(=O)c2ccc3c(c2)CCN3C(=O)C2CC2)C1 (configuration not stated)
  A: 1	B: 1	C: -3	D: 120*	E: 3	F: -3

39	CCCNC(=O)C[C@H]1CC[C@H]2[C@@H](COc3ccc(NC(=O)c4ccno4)cc3C(=O)N2C)O1
  A: -7	B: x	C: x	D: x	E: x	F: x

40	C[C@@H]1CCCCO[C@H](CN(C)CC2CCCCC2)[C@H](C)CN([C@H](C)CO)C(=O)c2cc(NS(=O)(=O)c3cccs3)ccc2O1
  A: 11	B: x	C: x	D: x	E: x	F: x

41	CC1=C(C(=O)OCC2CCCO2)C(c2ccncc2)C2=C(CC(C)(C)CC2=O)N1 (configuration not stated)
  A: -6	B: -1	C: x	D: 40*	E: 26	F: -2

42	COc1ccc(C(CNC(=O)C2COc3ccccc3O2)N2CCCC2)cc1 (configuration not stated)
  A: -13	B: 0	C: 0	D: 68*	E: x	F: -1

43	COc1ccc(C(CNC(=O)Cc2ccccc2)N2CCCCC2)cc1 (configuration not stated)
  A: -5	B: 1	C: -3	D: -2	E: 3	F: -1

44	CCOC(=O)Nc1ccc(C(=O)/C=C/c2ccccc2)cc1
  A: 2	B: -2	C: -1	D: 79*	E: -6	F: -12

45	CCOC(=O)Nc1ccc(Oc2ccccc2)cc1
  A: -5	B: 0	C: -1	D: -2	E: 2	F: -7

46	O=C(CS(=O)(=O)c1ccccc1)c1cc2cc(F)ccc2oc1=O
  A: -14	B: 2	C: -1	D: 79*	E: 7	F: -1

47	O=C(CS(=O)(=O)c1ccccc1)c1cc2ccccc2oc1=O
  A: -15	B: 1	C: -2	D: -3	E: 2	F: 0
